From patent US20010011084A1, “USE OF ESTROGEN TO MODIFY THE AMOUNT OF SEROTONIN TRANSPORTER OR ITS MRNA” (priority 1996, published 2001)

How the values were obtained:
SERT mRNA = conditions: for Labeled cells Cell area / Labeled cells Grain density / Unlabeled cells Cell area / Unlabeled cells Grain density / Labeled cells Number/section: OVX rat, 10 μg s.c., mean ± sem; for Labeled cells Number/section: n = 4
[1] = test system: serotonin transporter (SERT) binding sites; conditions: for [3H]-paroxetine specific binding: OVX rat, 10 μg s.c., mean ± sem

## C[C@]12CC[C@@H]3c4ccc(OC(=O)c5ccccc5)cc4CC[C@H]3[C@@H]1CC[C@@H]2O [EB, estradiol benzoate]
SERT mRNA; dorsal raphe nucleus, vs oil-treated OVX rats
  increase in number of cells expressing SERT mRNA (labelled cells): 50%
SERT mRNA; dorsal raphe
  Labeled cells Cell area: 287 ± 34 μ^2
  Labeled cells Grain density: 16.4 ± 1.19 % cell area
  Unlabeled cells Cell area: 160 ± 35 μ^2
  Unlabeled cells Grain density: 0.57 ± 0.13 % cell area
  Labeled cells Number/section: 158.1 ± 17.8
SERT mRNA; median raphe
  Labeled cells Cell area: 230 ± 33 μ^2
  Labeled cells Grain density: 16.1 ± 0.46 % cell area
  Unlabeled cells Cell area: 132 ± 22 μ^2
  Unlabeled cells Grain density: 0.58 ± 0.07 % cell area
  Labeled cells Number/section: 28.7 ± 3.6
SERT mRNA; ventromedial part of the dorsal raphe
  SERT mRNA containing cells compared with control (FIG. 2): many more
[1]; Basolateral amygdala
  [3H]-paroxetine specific binding: 112.7 ± 9.2 (7)*↑ fmol/mg tissue
[1]; Cingulate cortex
  [3H]-paroxetine specific binding: 50.9 ± 4.9 (7) fmol/mg tissue
[1]; Dorsal tegmental nucleus
  [3H]-paroxetine specific binding: 165.2 ± 40.8 (5) fmol/mg tissue
[1]; Frontal cortex
  [3H]-paroxetine specific binding: 21.4 ± 2.4 (7) fmol/mg tissue
[1]; Hippocampus: CA1
  [3H]-paroxetine specific binding: 41.3 ± 7.8 (3) fmol/mg tissue
[1]; Hippocampus: CA3
  [3H]-paroxetine specific binding: 85.3 ± 5.2 (7) fmol/mg tissue
[1]; Hypothalamus: Ventromedial
  [3H]-paroxetine specific binding: 51.0 ± 8.3 (6)**↑ fmol/mg tissue
[1]; Lateral geniculate
  [3H]-paroxetine specific binding: 92.3 ± 6.2 (7) fmol/mg tissue
[1]; Lateral septum
  [3H]-paroxetine specific binding: 40.9 ± 5.5 (7)*↑ fmol/mg tissue
[1]; Locus coeruleus
  [3H]-paroxetine specific binding: 173.0 ± 20.4 (7) fmol/mg tissue
[1]; Periaqueductal central gray
  [3H]-paroxetine specific binding: 76.1 ± 5.5 (7)*↓ fmol/mg tissue
[1]; Raphe pontis
  [3H]-paroxetine specific binding: 124.3 ± 9.1 (4) fmol/mg tissue
[1]; Rostral linear nucleus
  [3H]-paroxetine specific binding: 92.7 ± 13.5 (7) fmol/mg tissue
[1]; Superior colliculus
  [3H]-paroxetine specific binding: 110.0 ± 6.7 (7) fmol/mg tissue
[1]; Thalamus: Dorsal
  [3H]-paroxetine specific binding: 103.1 ± 11.6 (7) fmol/mg tissue
[1]; Thalamus: Paraventricular
  [3H]-paroxetine specific binding: 127.5 ± 8.6 (7) fmol/mg tissue
[1]; Thalamus: Ventral
  [3H]-paroxetine specific binding: 23.2 ± 5.4 (5)*↑ fmol/mg tissue
[1]; basolateral amygdala, vs oil-treated OVX rats
  increase in density of SERT binding sites: 20%
[1]; dorsal raphe or median raphe, 10 μg
  labelling compared with controls (FIG. 3): no apparent difference
[1]; dorsal raphe
  [3H]-paroxetine specific binding: 206.6 ± 10.1 (7) fmol/mg tissue
[1]; lateral septum, basolateral amygdala, ventral thalamus, ventromedial hypothalamic nucleus, 10 μg
  density of binding sites compared with controls (FIG. 3): higher
[1]; lateral septum, vs oil-treated OVX rats
  increase in density of SERT binding sites: 90%
[1]; median raphe
  [3H]-paroxetine specific binding: 146.6 ± 10.3 (7) fmol/mg tissue
[1]; periaqueductal central gray, 10 μg
  density of binding sites compared with controls (FIG. 3): lower
[1]; periaqueductal central gray, vs oil-treated OVX rats
  decrease in density of SERT binding sites: 15%
[1]; ventral nucleus of thalamus, vs oil-treated OVX rats
  increase in density of SERT binding sites: 250%
[1]; ventromedial nucleus of hypothalamus, vs oil-treated OVX rats
  increase in density of SERT binding sites: 250%

Where two headings read alike, the source gives them in different places.
